From patent publication US20260167659A1, “STING AGONISTS” (LIGACHEM BIOSCIENCES INC., priority 2022, published 2026)

Protein sequences, listed by entry. Tags and fused reporters are not part of them. Lines headed by an entry give the natural chain unless they say otherwise; changes in a name come on top.
UniProt Q86WV6, whole entry H232R: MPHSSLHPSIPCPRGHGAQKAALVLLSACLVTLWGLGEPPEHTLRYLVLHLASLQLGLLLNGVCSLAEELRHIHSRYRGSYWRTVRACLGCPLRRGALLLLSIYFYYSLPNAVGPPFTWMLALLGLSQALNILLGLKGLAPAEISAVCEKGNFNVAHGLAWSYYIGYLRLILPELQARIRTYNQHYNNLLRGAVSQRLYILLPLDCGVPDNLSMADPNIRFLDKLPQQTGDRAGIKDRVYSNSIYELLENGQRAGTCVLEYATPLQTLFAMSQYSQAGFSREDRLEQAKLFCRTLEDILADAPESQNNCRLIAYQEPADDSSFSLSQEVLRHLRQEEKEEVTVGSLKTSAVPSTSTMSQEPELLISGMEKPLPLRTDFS
UniProt Q86WV6, whole entry: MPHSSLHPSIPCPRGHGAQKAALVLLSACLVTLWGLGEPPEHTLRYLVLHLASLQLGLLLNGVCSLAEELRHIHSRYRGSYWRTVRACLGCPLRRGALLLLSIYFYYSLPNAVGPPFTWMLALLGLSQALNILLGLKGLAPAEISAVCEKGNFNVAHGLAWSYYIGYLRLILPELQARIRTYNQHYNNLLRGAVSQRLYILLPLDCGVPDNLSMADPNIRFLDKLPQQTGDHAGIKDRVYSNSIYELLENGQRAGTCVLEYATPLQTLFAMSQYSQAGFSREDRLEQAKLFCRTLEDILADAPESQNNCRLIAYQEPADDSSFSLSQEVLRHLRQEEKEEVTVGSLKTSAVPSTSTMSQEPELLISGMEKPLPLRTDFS
UniProt Q86WV6, whole entry R71H/G230A/H232R/R293Q: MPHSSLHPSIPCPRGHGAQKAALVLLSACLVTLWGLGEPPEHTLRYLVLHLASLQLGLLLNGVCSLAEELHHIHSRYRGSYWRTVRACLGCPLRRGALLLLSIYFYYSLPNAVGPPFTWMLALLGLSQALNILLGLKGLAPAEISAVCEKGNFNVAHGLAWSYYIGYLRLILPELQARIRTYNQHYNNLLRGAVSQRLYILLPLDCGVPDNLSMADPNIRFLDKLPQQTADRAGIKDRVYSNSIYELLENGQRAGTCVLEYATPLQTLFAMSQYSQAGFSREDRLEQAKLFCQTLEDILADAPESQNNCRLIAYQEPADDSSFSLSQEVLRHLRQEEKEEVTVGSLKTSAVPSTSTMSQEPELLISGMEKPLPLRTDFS

Legend:
hSTING-WT (R232) = hSTING-WT (R232) (Homo sapiens, UniProt Q86WV6, H232R); test: STING activation, THP1-Dual IRF3 reporter assay, hSTING-R232 cells; type: cell-based; conditions: read-out: STING activity using hSTING-R232 cells EC50, IRF3 luciferase reporter, 24 hours
hSTING HAQ variant = hSTING HAQ variant (Homo sapiens, UniProt Q86WV6, G230A/H232R/R293Q/R71H); test: STING activation, THP1-Dual IRF3 reporter assay, hSTING-HAQ cells; type: cell-based; conditions: read-out: STING activity using hSTING-HAQ cells, HAQ EC50, IRF3 luciferase reporter, 24 hours
hSTING H232 variant = hSTING H232 variant (Homo sapiens, UniProt Q86WV6); test: STING activation, THP1-Dual IRF3 reporter assay, hSTING-H232 cells; type: cell-based; conditions: read-out: STING activity using hSTING-H232 cells, H232 EC50, IRF3 luciferase reporter, 24 hours
human STING = human STING (Homo sapiens, UniProt Q86WV6, H232R); test: Direct STING binding, HUMAN STING WT BINDING KIT (Cisbio); conditions: read-out: Binding potency EC50; direct binding to human STING WT protein in vitro
[1] = tested on: human PBMCs (CD8+ T cells and NK cells); test: CD8+ T and NK cell activation in PBMCs by flow cytometry; conditions: 100 nM, 48 hours
[2] = Plasma pharmacokinetics in naive Balb/C mouse, LC-MS/MS; conditions: 1.5 mg/kg single IV
PBMCs = test: Normal cell cytotoxicity in PBMCs, CellTiter-Glo; conditions: read-out: In vitro cell cytotoxicity in PBMCs CC50, 72 hours
CT26 cells = test: In vivo efficacy, CT26 syngeneic mouse model; conditions: FIG. 8

EC50 (hSTING-WT (R232)) | EC50 (hSTING HAQ variant) | EC50 (hSTING H232 variant) | EC50 (human STING) | CL ([2]; n = 3) | VSS ([2]; n = 3) | t1/2 ([2]; n = 3) | AUC∞, norm ([2]; n = 3, dose-normalised) | Cmax, norm ([2]; n = 3, dose-normalised) | AUClast ([2]; n = 3, plasma) | AUC∞ ([2]; n = 3, plasma) | C0 ([2]; n = 3, plasma) | Cmax ([2]; n = 3, plasma) | F (%) ([2]; value in brackets (IV reference)) | SMILES | CD69 expression on CD8+ T cells ([1]; FIG. 4A) | CD69 expression on NK cells ([1]; FIG. 4B) | CC50 (PBMCs) | mice with tumors completely eradicated (CT26 cells; 0.5 mg/kg intravenously once weekly for 3 weeks) | mice with tumors completely eradicated (CT26 cells; single dose of 1 mg/kg intravenously)
0.00995 µM | 0.0148 µM | 0.0483 µM | 0.00019 µM | 0.5 ± 0 mL/min/kg | 0.17 ± 0.01 L/kg | 4.26 ± 0.74 h | 38.1 ± 2.60 kg·h/L | 6.44 ± 0.41 kg/L | 56900 ± 4120 ng·h/mL | 57100 ± 3900 ng·h/mL | 10000 ± 640 ng/mL | 9650 ± 610 ng/mL | (100) % | CCn1nc(C)cc1C(=O)Nc1nc2cc(C(N)=O)cc(OC)c2n1C/C=C/Cn1c(NC(=O)c2cc(C)nn2CC)nc2cc(C(N)=O)cc(OC/C=C/Cn3cc(NC(=O)OCc4ccc(O[C@@H]5O[C@H](C(=O)O)[C@@H](O)[C@H](O)[C@H]5O)c(C(=O)NCCOCCOCCN(C)C)c4)cn3)c21 | enhanced CD69 expression | enhanced CD69 expression | 0.016 µM | 2 out of 5 | 2 out of 5
0.0167 µM | – | – | 0.00039 µM | – | – | – | – | – | – | – | – | – | – | CCn1nc(C)cc1C(=O)Nc1nc2cc(C(N)=O)cc(OC)c2n1C/C=C/Cn1c(NC(=O)c2cc(C)nn2CC)nc2cc(C(N)=O)cc(OCCc3ccc(NC(=O)OCc4ccc(O[C@@H]5O[C@H](C(=O)O)[C@@H](O)[C@H](O)[C@H]5O)c(C(=O)NCCOCCOCCO)c4)cc3)c21 | – | – | – | – | –
